A short description of series [1]: Decarboxylation of quinolinate-containing culture solution to nicotinic acid. To be noted: converted from quinolinate at about 135 degrees, about 0.2 MPa, about 3 hours, pH 2. The text has this:
To identify the ability to produce nicotinic acid of the quinolinate-producing strains into which nadB variants were introduced, the yields of quinolinate in Table 10 were used. The production method of nicotinic acid used herein was decarboxylation of the quinolinate-including culture solution under high-temperature and high-pressure conditions based on the disclosure of Korean Patent No. 10-1223904, to convert quinolinate to nicotinic acid. To remove cells from the quinolinate-containing culture solution, centrifugation was performed at about 3000 rpm to about 4000 rpm for about 10 minutes to about 30 minutes. The quinolinate-containing supernatant resulting from the centrifugation was separated and used as a sample for decarboxylation reaction.
The decarboxylation reaction was conducted at about 135[…] at about 0.2 MPa for about 3 hours. An aqueous solution of quinolinate (a standard product of Sigma-Aldrich Co.) in deionized water was used as a control group. Each samples of the aqueous solutions of quinolinate was titrated with sodium hydroxide, ammonia water, hydrochloric acid, or sulfuric acid, specifically the conversion of quinolinate into nicotinic acid took place at pH of 2. […]

In series [2] the test system is W3110-ΔnadC. Briefly: Quinolinate titer assay with nicotinic acid (NA) added to the culture medium, HPLC. It is filed as cell-based, E. coli. To be noted: for yield of quinolinate (relative): culture medium contains nicotinic acid 5 uM or greater; for Quinolinate: culture solution used for decarboxylation (values of Table 10, NA 0 uM). How it is done: To compare the ability to produce quinolinate in the wild type nadB gene and nadB gene variants with respect to NAD concentration, a quinolinate titer assay was conducted. After the quinolinate-producing strain (W3110-ΔnadC) obtained in <2-1> of Example 2 was transformed with the plasmidpPro-nadB67-pCJq1-nadA constructed in <2-2> of Example 2, and each of the 18 types of nadB67 variants constructed in <2-2-1> of Example 2 via CaCl2 method. […] To identify the NAD feedback resistance of the nadB67 variants, nicotinic acid (NA) was added to the culture medium at different concentrations, followed by comparison of the produced quantities of quinolinate.
The quantity of quinolinate (quinolinic acid, QA) in each of the culture solutions was analyzed by high performance liquid chromatography (HPLC).
Referring to Table 11, the yield of quinolinate was less than 50% when the pPro-nadB-pCJ-nadA plasmid including the wild type nadB gene was used, and the culture medium contains nicotinic acid, over 5 uM or greater. Whereas the yield of quinolinate was 70% or greater when the pPro-nadB67-pCJ-nadA plasmid and 302nd variants recombinant plasmids including the nadB gene variant were used. W3110-ΔnadC strain is an NAD auxotroph that requires supply of external NAD for growth. W3110-ΔnadC strain is unable to directly accept NAD, and uses heterogenous nicotinic acid (NA) or nicotinamide (Nm) to produce NAD. When an amount of intracellular NAD is 1 mM or greater, the nadB gene is feedback-regulated to maintain the amount of intracellular NAD constant. Accordingly, the production of QA may be limited by the nadB gene that is feedback-regulated. Adding NA to a culture medium means an increase of NAD in a strain. Accordingly, the production quantities of QA were compared between the strains with the addition of NA to the culture medium at different concentrations to identify a degree of feedback regulation in the nadB gene variants with respect to NAD concentration.

Setting [3] is: NA 0 uM (100% basis), strain W3110-ΔnadC.

Turning to “pPro-nadB67-pCJ-nadA: recombinant vector with nadB variant (Lys302Arg) and wild nadA gene, SEQ ID NO: 28”, in series [1], the Nicotinic acid worked out at 3324 mg/L. The “Relative yield of quinolinate, Relative Percentage” value in series [2] (setting [3]) came to 100%; in series [2] (NA 5 uM, relative to NA 0 uM) it was 85%; in series [2] (NA 10 uM, relative to NA 0 uM) it was 71%. Also, the QA production quantity is on record as 4553 mg/L in series [2] (NA 0 uM, strain W3110-ΔnadC); 3860 mg/L in series [2] (NA 5 uM, strain W3110-ΔnadC); 3251 mg/L in series [2] (NA 10 uM, strain W3110-ΔnadC). Besides, in series [2], the “yield of quinolinate (relative)” value was at least 70%. The same substance came in with a Quinolinate in series [2] of 4553 mg/L.

Regarding “pPro-nadB-pCJ-nadA: recombinant vector of 5.9 kb with wild type nadB (pPro promoter) and nadA (pCJ1 promoter), SEQ ID NO: 27 [reference compound]”, in series [1], the Nicotinic acid is 2555 mg/L. Moreover, the “Relative yield of quinolinate, Relative Percentage” value in series [2] (setting [3]) was found to be 100%; in series [2] (NA 5 uM, relative to NA 0 uM), 46%; in series [2] (NA 10 uM, relative to NA 0 uM), 20%. In addition, the QA production quantity in series [2] (NA 0 uM, strain W3110-ΔnadC) turned out to be 3500 mg/L; in series [2] (NA 5 uM, strain W3110-ΔnadC), 1600 mg/L; in series [2] (NA 10 uM, strain W3110-ΔnadC), 700 mg/L. The “yield of quinolinate (relative)” value in series [2] is “less than 50%”. In addition, the Quinolinate in series [2] came to 3500 mg/L.

The values above are taken from patent US9290743B2, “L-aspartate oxidase variant and a method for producing quinolinate or nicotinic acid using the same” (CJ CHEILJEDANG CORP., priority 2013, dated 2016).
